The text below walks through data of PubChem BioAssay (NCI).

The list shows a part of the results, in another mix than the full data. A structure can be active in one record and inactive in another. Active and inactive are the calls of the source. Rule as the data show it: active = growth inhibition above about 70%; inactive = the rest.

The nature of this assay: NCI Yeast Anticancer Drug Screen. Data for the rad52 strain (AID 147).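 Also: 0% = growth of vehicle-treated control cultures.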 Conditions: S. cerevisiae rad52 mutant growth inhibition, stronger effect = higher value. On the procedure:
Growth inhibition of yeast strains with defined genetic alterations is measured as a screen for potential anti-cancer activity. Selected strains with alterations in DNA damage repair or cell cycle control were exposed to compounds and growth inhibition was measured relative to vehicle treated controls. The strain used in this assay is rad52

Take `COc1ccc(C[N+](C)(CCCl)CCCl)c([N+](=O)[O-])c1`: the growth inhibition (at 1.2 µM) is inactive: 26%; the growth inhibition (at 3.7 µM) is inactive: 34%; the growth inhibition (at 11.0 µM) is inactive: 53%; the growth inhibition (at 33.0 µM) is inactive: 69%; the growth inhibition (at 100.0 µM) was active: 74%.
For `Cn1cnc([N+](=O)[O-])c1C[N+](C)(CCCl)CCCl` the same measures were inactive: -8%, inactive: 9%, inactive: 61%, active: 83% and active: 91%.
In the case of `Cc1ccc([N+](=O)[O-])c(C[N+](C)(CCCl)CCCl)c1`, the growth inhibition is inactive: 19% (at 1.2 µM); inactive: 34% (at 3.7 µM); active: 85% (at 11.0 µM); active: 94% (at 33.0 µM); active: 95% (at 100.0 µM).
The matching figures for `COc1ccc([N+](=O)[O-])c(C[N+](C)(CCCl)CCCl)c1`: inactive: -11%, inactive: -17%, inactive: 10%, active: 71% and active: 92%.
Take `ClCCN1CCCCC1CCl` (stereo not given): the growth inhibition (at 1.2 µM) was inactive: 0%; the growth inhibition (at 3.7 µM) was inactive: 4%; the growth inhibition (at 11.0 µM) was inactive: 24%; the growth inhibition (at 33.0 µM) is active: 81%; the growth inhibition (at 100.0 µM) is active: 95%.
